Data taken from US8883833B2, “Substituted benzoazole PDE4 inhibitors for treating inflammatory, cardiovascular and CNS disorders” (Decode Genetics EHF, priority 2007, dated 2014).

The chains behind the UniProt entries cited, without tags or fusion partners.
UniProt Q08499, whole entry: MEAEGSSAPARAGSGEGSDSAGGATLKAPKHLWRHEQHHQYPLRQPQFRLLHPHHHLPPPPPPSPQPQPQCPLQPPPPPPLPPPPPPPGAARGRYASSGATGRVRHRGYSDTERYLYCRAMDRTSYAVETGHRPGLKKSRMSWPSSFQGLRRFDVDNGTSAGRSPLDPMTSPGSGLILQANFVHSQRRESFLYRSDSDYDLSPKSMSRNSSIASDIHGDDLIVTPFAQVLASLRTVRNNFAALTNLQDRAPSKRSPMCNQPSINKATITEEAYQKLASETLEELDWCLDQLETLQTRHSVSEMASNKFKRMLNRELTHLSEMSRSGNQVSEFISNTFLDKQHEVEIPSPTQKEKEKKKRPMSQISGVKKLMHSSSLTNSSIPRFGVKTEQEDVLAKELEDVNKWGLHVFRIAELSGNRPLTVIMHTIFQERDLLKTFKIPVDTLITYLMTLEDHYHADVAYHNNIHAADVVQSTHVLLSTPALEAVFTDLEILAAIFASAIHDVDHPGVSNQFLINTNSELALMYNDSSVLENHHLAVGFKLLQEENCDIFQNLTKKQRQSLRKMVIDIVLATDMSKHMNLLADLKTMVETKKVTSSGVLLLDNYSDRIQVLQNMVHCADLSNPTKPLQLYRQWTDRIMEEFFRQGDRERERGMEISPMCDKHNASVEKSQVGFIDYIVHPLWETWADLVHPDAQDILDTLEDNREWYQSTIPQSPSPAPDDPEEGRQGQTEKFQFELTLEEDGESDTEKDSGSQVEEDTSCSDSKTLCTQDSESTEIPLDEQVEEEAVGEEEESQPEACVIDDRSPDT
UniProt Q07343, whole entry: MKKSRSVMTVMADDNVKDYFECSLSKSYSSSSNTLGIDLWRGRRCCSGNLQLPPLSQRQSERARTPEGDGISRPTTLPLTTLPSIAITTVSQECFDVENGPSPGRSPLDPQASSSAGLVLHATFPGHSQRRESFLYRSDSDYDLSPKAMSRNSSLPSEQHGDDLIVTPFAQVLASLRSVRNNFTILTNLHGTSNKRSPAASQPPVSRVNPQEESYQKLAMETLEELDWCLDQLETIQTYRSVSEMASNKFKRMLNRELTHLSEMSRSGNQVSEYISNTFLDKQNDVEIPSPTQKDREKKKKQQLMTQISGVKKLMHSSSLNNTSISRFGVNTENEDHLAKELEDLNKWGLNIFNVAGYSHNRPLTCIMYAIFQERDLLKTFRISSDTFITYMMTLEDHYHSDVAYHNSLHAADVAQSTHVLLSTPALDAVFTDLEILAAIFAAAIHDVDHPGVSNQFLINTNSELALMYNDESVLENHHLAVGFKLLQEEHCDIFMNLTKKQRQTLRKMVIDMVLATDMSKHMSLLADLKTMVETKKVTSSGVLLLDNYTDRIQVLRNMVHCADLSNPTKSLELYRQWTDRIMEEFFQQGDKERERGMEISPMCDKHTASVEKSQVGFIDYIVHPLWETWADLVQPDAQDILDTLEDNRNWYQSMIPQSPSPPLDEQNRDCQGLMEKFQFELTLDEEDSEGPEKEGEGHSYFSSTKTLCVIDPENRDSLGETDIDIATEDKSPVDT

Legend:
human PDE4D isozyme = human PDE4D isozyme (Homo sapiens, UniProt Q08499); assay: IC50 for human PDE4D isozyme (Table 4); type: biochemical; conditions: read-out: IC50 for human PDE4D isozyme, hPDE4D; tested form: hydrochloride
Experimental: (§1) In-vitro assay for PDE4 enzymes. The in-vitro activity of PDE4 enzymes and the in-vitro potency of therapeutic agents described in the present invention was measured using a real-time, enzyme-coupled spectrophotometric assay. By using three different coupling enzymes, the product of the PDE4 reaction is coupled to the oxidation of the reduced form β-nicotinamide adenine dinucleotide (NADH), which dissipation can be monitored spectrophotmetrically at […]. Assay description. Buffer A containing 50 mM Tris, pH 8.0, 16 mM MgCl2 and 80 mM KCl is prepared and stored at room temperature. Buffer B containing 50 mM Tris, pH 8.0 is prepared and stored at toom temperature. Stock solutions of the following reagents are prepared in Buffer B and stored at −20° C.: Adenosine-5′-triphosphate (ATP), cyclic adenosine-5′-monophosphate (cAMP), phosphoenolpyruvate (PEP) and NADH. An assay mix is prepared by mixing Buffer A, […] (TCEP), ATP, PEP, NADH, myokinase (MK), pyruvate kinase (PK), lactate dehydroganese (LDH) and PDE4 to a final volume of 20 mL, which is enough for a single 96-well assay plate. […] Reaction progress curves are monitored in a plate reader capable of measuring light absorbance at 340 nm. A decrease in light absorbance at 340 nm is due to oxidation of NADH. […] Reaction rates are determined from the slopes of the linear portions of the progress curves. […]

human PDE4B isozyme = human PDE4B isozyme (Homo sapiens, UniProt Q07343); assay: IC50 for human PDE4B isozyme (Table 5); type: biochemical; conditions: read-out: IC50 for human PDE4B isozyme, hPDE4B; tested form: hydrochloride
Experimental: as §1

IC50 (human PDE4D isozyme): < 5 µM
IC50 (human PDE4B isozyme): 5 to 20 µM
SMILES: NC1CCN(Cc2cc3scnc3c(-c3cccc(Cl)c3)c2F)CC1
